The chains behind the UniProt entries cited, without tags or fusion partners.
UniProt P47746, whole entry: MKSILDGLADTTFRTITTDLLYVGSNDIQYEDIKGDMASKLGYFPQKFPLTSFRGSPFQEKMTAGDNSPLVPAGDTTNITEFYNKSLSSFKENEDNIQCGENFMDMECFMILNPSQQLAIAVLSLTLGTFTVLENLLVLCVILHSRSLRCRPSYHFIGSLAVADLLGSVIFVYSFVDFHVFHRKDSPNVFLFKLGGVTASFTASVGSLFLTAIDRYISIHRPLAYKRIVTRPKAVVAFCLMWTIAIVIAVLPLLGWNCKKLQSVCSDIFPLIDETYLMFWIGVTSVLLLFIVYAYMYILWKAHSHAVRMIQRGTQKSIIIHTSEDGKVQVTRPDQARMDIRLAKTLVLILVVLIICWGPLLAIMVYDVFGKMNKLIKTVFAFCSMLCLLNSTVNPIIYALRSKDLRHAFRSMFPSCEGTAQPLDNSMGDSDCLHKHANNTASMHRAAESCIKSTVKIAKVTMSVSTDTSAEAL

In BindingDB's records for PubMed 11160626 (Japan Tobacco, 2001):

Target: Cannabinoid receptor 1 (Mus musculus, UniProt P47746)

## CCCCCc1cc(O)c2c(c1)OC(C)(C)[C@@H]1CCC(C)=CC21 (stereo partly specified) [Tetrahydrocannabinol]
  Ki: 8.33 nM
